Structures are written as SMILES. A value given as a limit tells only on which side of the number the result lay.

By UniProt entry, the sequences of proteins in these tests, tags left out.
UniProt P27338, whole entry: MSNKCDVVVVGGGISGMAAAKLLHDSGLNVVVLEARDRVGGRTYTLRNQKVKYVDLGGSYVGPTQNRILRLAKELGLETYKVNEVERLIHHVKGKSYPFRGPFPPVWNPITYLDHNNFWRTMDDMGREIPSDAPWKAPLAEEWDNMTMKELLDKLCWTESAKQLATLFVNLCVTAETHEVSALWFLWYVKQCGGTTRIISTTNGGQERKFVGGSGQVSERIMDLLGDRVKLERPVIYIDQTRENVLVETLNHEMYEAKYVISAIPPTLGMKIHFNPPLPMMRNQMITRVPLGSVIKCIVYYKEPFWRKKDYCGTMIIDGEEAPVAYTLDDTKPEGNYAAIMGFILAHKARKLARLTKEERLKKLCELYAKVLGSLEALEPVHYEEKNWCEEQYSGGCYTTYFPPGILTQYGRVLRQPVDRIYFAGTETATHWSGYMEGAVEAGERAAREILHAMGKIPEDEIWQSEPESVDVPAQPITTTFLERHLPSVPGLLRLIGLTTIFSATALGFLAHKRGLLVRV
UniProt P21397, whole entry: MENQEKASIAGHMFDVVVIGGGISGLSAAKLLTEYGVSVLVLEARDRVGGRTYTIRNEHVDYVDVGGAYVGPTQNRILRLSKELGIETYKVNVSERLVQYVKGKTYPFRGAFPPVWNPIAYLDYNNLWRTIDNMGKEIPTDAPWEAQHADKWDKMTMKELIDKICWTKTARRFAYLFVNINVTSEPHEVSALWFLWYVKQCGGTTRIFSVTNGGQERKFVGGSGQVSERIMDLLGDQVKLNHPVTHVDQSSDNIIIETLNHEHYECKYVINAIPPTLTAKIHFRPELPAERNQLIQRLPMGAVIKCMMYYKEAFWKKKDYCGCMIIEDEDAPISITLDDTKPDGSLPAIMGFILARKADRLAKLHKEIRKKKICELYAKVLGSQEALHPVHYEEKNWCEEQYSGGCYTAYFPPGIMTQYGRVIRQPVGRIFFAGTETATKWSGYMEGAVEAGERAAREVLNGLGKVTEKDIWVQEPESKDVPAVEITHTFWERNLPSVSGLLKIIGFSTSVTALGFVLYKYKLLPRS

The species named for one assay is Homo sapiens. Briefly: Selectivity index, ratio of IC50 for human recombinant MAOB to IC50 for human recombinant MAOA.
For assay [1], the target named is T1, Amine oxidase [flavin-containing] B (Homo sapiens, UniProt P27338). Briefly: Competitive inhibition of human recombinant MAOB using 0.06 to […] benzylamine as substrate preincubated for 30 mins followed by substrate addition by Lineweaver-Burk plot.
The target in assay [2] is T1, Amine oxidase [flavin-containing] B. Nature of the assay: Inhibition of human recombinant MAOB using benzylamine as substrate preincubated for 30 mins followed by substrate addition.
Assay [3] has as its target Amine oxidase [flavin-containing] A (Homo sapiens, UniProt P21397). Nature of the assay: Inhibition of human recombinant MAOA using kynuramine as substrate preincubated for 30 mins followed by substrate addition.

For orientation: Ki means the dissociation constant of the complex between target and ligand, obtained from inhibition or displacement. By IC50 is commonly meant the concentration at which inhibition is half-maximal. Regarding `O=C1/C(=C/c2ccc(O)cc2)Oc2cc(O)ccc21`, the Ratio IC50 in the assay filed under Homo sapiens came to 9.4. Besides, the Ki in assay [1] was 510 nM. For the same molecule, in assay [2], the IC50 came to 2450 nM.
As to `C#CCN(C)Cc1ccccc1` [PARGYLINE], the IC50 in assay [3] was above 2000 nM.
